Assay [1] relates to 4 BRAF(v600E) cell lines (A375, RKO, Colo 201, SK-MEL-28). The experiment in a line: pERK modulation in BRAF V600E control cell lines.
Assay [2] concerns NCI-H358 cells. The experiment in a line: pERK quantification (Meso Scale Discovery). Particulars: concentrations up to 50 µM, high serum.
The test system of assay [3] is 4 BRAF(v600E) cell lines (A375, RKO, Colo 201, SK-MEL-28). Nature of the assay: 2D and 3D proliferation in BRAF V600E control cell lines. Particulars: low serum, soft agar, or high serum, adherent conditions.
The test system of the next assay is KRAS. Nature of the assay: Alpha Screen PPI assays, summary over KRAS interactions (SOS1, CRAF, PI3Kα). Particulars: versus 1.
Assay [4] relates to NCI-H358 cells. The experiment in a line: Soft agar proliferation assay in low serum. The note with it: soft agar and low serum conditions.

SMILES strings stand for the structures.

Consider `Cn1cnc(Cn2ccc3ccc(CNCc4[nH]c5ccccc5c4[C@@H]4NC(=O)c5ccc(O)cc54)cc32)c1`, for which, in assay [1], the “inhibition of pERK” value is “no inhibition of pERK”. Moreover, the pERK reduction entry in the assay with NCI-H358 cells [2] was “no pERK reduction”. The antiproliferative effect entry in assay [3] is given as “No antiproliferative effect”; in the assay with NCI-H358 cells [4] it was “significant antiproliferative effect observed only at 50 µM”. The “weaker inhibition of PPIs of GTP and GDP forms of KRAS than eutomer 1” value in the assay on KRAS is 10 fold.

For the origin of these results see article PMC6689897, “Drugging an undruggable pocket on KRAS” (Proceedings of the National Academy of Sciences of the …, 2019).
